# Target: Nluc-AT1 (Homo sapiens, UniProt P30556)
# Assay: NanoBRET competition binding with TAMRA-AngII, HEK293FT cells
# Settings: 1 μM TAMRA-AngII; compared with angiotensin II and candesartan
smiles,measurement,value
CCCc1nc(C(C)(C)O)c(C(=O)O)n1Cc1ccc(-c2ccccc2-c2nnn[nH]2)cc1 [olmesartan],relative affinity in competition with TAMRA-AngII,highest affinity

# From publication PMC4488387 (Nature methods, 2015)
